RBA and inhibition data for 2 compounds are collected here from ChEMBL document CHEMBL1128390, “Synthesis, antitubulin and antimitotic activity, and cytotoxicity of analogs of 2-methoxyestradiol, an endogenous mammalian metabolite of estradiol that inhibits tubulin polymerization by binding to the colchicine binding site” (J Med Chem, 1995).

Protein sequences, listed by entry. Tags and fused reporters are not part of them.
UniProt P06211, whole entry, looked up: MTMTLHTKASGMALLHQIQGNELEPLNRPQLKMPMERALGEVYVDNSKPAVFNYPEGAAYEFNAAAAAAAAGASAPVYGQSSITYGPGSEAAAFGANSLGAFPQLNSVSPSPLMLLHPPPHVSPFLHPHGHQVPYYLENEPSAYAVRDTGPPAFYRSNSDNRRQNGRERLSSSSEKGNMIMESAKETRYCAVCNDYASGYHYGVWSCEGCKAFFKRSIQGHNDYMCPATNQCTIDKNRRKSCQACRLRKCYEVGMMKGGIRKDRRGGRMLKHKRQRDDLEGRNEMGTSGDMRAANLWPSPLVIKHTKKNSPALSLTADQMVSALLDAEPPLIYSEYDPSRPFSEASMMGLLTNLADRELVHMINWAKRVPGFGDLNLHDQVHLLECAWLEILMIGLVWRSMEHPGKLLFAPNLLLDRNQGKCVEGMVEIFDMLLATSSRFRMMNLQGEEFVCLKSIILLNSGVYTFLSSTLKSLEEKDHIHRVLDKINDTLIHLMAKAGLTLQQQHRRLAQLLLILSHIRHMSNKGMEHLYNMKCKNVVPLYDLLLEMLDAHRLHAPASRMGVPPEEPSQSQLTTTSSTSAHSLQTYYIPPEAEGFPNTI
UniProt Q62986, whole entry, looked up: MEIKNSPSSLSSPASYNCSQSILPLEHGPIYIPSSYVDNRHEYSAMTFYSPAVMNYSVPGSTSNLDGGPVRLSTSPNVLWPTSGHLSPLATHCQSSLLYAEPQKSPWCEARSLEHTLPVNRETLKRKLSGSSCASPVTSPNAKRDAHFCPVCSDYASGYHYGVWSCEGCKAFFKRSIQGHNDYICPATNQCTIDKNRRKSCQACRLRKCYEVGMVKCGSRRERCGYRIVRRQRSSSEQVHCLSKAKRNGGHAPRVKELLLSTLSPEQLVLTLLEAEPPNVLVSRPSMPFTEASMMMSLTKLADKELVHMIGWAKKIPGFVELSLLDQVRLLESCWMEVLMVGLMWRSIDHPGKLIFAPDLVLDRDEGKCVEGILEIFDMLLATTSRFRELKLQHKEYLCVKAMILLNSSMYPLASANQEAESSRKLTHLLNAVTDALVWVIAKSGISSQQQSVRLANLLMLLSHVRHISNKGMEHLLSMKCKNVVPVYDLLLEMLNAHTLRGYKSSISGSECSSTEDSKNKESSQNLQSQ
UniProt Q6B856, whole entry: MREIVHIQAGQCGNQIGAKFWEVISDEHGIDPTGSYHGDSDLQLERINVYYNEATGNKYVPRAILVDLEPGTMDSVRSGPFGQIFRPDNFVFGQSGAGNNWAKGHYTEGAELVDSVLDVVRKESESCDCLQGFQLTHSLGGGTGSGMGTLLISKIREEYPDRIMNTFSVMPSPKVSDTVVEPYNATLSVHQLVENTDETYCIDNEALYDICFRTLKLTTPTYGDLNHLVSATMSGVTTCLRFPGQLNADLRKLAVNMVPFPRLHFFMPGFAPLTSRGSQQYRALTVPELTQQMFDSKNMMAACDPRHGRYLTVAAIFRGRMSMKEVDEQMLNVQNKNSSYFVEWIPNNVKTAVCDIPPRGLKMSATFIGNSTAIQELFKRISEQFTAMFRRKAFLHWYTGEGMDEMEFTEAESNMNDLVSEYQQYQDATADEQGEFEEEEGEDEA

The target of assay [1] is T1, Estrogen receptor (Rattus norvegicus) (UniProt P06211+Q62986). Briefly: Relative binding affinity (RBA) for estrogen receptor at 25 degree C. The class given is protein assay.
Assay [2] has as its target Tubulin beta chain (Bos taurus) (UniProt Q6B856). Briefly: Percentage inhibition of colchicine binding to tubulin. The conditions noted are these: concentration not given here. The arrangement: concentration or dose not given beside the values.
Assay [3] deals with T1, Estrogen receptor (Rattus norvegicus). Briefly: Relative binding affinity (RBA) for estrogen receptor at 0C. The format is protein assay.

A word on the inhibition: it is the change of the read-out against control, counted positive when it falls. In turn, `CCOc1cc2c(cc1O)CC[C@@H]1[C@@H]2CC[C@]2(C)[C@@H](O)CC[C@@H]12` returned an RBA in assay [1] of 0.02. The inhibition in assay [2] came out at 71%.

`CCSc1cc2c(cc1O)CC[C@@H]1[C@@H]2CC[C@]2(C)[C@@H](O)CC[C@@H]12`: the RBA was determined as 0.235 in assay [1] and 0.285 in assay [3]. This compound came in with an inhibition in assay [2] of 18%.
